The values below are quoted from earlier work in patent US10737072B2, “Control catheters and methods for pulmonary suffusion and related therapies” (SUFFUSION TECHNOLOGIES LLC, priority 2012, dated 2020).

This data set has as its system primary and metastatic cancer. The settings on record: Neyazaki, et al., 1969; 27 cases; cited from earlier work.

As for `CO[C@@]12[C@H](COC(N)=O)C3=C(C(=O)C(C)=C(N)C3=O)N1C[C@@H]1N[C@@H]12` [Mitomycin C], the “Chemical pneumonitis (number of cases)” value is “pneumonitis (1), cases” and the “chest wall skin erythema (number of cases)” value was “erythema (1) cases”.
